The target in one test is URAT1 K393D mutant (Homo sapiens, UniProt Q96S37, K393D). The test is described as follows: 14C-uric acid uptake assay in transfected HEK293 cells. The format is cell-based.
The target of another test is URAT1 K393A mutant (Homo sapiens, UniProt Q96S37, K393A). The test is described as above. The format is cell-based.
For another test, the target named is URAT1 K393H mutant (Homo sapiens, UniProt Q96S37, K393H). The description is as above. The format is cell-based.
Another test has as its target URAT1 K393R mutant (Homo sapiens, UniProt Q96S37, K393R). The description is as above. The format is cell-based.
The next test deals with wild-type hURAT1 (Homo sapiens, UniProt Q96S37). The test can be described thus: cell-based.
The next test deals with URAT1 K393E mutant (Homo sapiens, UniProt Q96S37, K393E). The test is described as follows: 14C-uric acid uptake assay in transfected HEK293 cells. The class given is cell-based.

The chains behind the UniProt entries cited, without tags or fusion partners.
UniProt Q96S37, whole entry K393D: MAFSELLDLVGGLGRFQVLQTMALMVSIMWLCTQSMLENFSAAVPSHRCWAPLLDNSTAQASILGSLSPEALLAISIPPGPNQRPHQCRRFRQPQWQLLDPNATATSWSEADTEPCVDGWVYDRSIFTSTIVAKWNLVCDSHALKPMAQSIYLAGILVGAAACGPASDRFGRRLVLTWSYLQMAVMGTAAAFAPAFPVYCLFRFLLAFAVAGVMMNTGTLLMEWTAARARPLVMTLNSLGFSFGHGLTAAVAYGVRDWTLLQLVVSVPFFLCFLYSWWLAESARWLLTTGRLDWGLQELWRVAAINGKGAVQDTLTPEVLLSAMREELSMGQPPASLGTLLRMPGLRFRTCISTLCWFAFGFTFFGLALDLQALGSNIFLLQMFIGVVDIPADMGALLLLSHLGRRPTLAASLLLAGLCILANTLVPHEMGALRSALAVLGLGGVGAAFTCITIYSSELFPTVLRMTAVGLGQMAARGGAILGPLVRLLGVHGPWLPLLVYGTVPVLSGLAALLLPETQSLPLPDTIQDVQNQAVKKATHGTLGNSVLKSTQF
UniProt Q96S37, whole entry K393A: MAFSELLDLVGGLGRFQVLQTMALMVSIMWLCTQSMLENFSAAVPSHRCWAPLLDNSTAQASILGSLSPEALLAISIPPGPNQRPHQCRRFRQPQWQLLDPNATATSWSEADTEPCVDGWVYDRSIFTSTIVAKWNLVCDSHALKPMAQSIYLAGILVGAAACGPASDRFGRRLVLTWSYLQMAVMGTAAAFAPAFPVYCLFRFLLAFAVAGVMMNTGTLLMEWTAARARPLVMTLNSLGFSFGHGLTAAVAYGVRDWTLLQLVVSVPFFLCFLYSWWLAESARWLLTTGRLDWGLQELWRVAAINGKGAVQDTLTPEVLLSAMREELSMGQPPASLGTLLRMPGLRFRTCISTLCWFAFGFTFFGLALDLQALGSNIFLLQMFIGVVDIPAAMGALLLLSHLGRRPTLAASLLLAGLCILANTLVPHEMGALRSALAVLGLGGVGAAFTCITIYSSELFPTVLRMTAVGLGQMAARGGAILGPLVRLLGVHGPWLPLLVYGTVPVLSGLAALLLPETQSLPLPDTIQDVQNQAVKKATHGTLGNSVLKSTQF
UniProt Q96S37, whole entry K393H: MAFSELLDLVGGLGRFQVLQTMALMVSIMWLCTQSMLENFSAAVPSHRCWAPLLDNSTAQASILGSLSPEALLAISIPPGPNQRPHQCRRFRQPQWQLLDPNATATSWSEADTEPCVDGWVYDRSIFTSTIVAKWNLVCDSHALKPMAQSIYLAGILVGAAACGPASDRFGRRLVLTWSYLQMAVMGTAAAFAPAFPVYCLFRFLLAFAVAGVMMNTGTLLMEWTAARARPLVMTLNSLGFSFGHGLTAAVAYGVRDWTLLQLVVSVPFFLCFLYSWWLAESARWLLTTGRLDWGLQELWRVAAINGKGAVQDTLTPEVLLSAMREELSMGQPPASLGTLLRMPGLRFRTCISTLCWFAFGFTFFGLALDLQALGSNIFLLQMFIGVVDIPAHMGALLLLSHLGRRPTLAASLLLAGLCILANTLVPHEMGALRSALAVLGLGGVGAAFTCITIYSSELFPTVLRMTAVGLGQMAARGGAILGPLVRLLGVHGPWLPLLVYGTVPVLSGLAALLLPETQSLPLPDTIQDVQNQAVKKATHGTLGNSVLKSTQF
UniProt Q96S37, whole entry K393R: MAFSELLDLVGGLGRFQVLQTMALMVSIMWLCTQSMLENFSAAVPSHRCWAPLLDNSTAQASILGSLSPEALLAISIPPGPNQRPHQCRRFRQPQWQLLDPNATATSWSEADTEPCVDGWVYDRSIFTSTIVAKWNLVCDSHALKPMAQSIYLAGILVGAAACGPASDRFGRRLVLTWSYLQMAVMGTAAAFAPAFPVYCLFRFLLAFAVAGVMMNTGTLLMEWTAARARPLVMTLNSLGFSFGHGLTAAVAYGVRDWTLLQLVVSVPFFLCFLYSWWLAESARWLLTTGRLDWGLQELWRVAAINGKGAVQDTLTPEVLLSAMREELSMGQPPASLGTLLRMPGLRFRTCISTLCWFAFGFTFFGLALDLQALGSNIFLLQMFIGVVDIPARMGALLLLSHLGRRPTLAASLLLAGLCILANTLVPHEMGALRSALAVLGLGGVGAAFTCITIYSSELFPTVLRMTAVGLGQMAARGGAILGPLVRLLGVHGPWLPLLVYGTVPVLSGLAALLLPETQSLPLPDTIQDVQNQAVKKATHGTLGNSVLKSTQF
UniProt Q96S37, whole entry K393E: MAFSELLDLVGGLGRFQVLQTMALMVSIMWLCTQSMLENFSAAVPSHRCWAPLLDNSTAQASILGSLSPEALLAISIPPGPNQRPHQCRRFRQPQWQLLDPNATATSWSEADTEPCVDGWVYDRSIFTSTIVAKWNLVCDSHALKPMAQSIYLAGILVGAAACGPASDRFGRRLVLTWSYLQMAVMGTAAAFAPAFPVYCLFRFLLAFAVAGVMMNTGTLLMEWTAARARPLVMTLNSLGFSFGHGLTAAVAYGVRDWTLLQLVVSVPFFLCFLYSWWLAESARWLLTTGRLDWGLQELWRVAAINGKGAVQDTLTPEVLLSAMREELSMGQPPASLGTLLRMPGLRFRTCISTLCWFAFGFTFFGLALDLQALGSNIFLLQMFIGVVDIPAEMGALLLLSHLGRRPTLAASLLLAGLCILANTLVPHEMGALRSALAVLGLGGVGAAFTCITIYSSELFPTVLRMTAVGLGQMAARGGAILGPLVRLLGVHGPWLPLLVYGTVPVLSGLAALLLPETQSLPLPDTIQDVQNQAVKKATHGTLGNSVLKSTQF

Our source for the IC50 values is paper PMC9521027 (ACS Omega, 2022).

The structures appear in SMILES notation.

Usually IC50 stands for the concentration that gives 50% inhibition. The low end stands for inhibition by little substance, the high end for a need for much substance. For `O=C(O)CSc1nnc(Br)n1-c1ccc(C2CC2)c2ccccc12` [lesinurad], the IC50 against URAT1 K393D mutant is 8.57 ± 2.65 µM; at URAT1 K393A mutant, 9.45 ± 4.51 µM; on URAT1 K393H mutant, 8.79 ± 1.26 µM; against URAT1 K393R mutant it was 6.04 ± 1.62 µM; against wild-type hURAT1, 6.94 ± 2.41 µM; against URAT1 K393E mutant it was 7.89 ± 3.66 µM.
